# Experiments:
# [1] = system: AF9-YEATS (Homo sapiens); experiment: EMSA; details: EMSA: 20 mM Tris-HCl pH 7.5, 150 mM NaCl (nucleosomes: plus 0.1 mM EDTA, 10% glycerol), 30 min at room temperature; 5-10% native PAGE in 0.2x TB or TBE on ice
# [2] = target: H3K9cr-containing nucleosome core particle, P68431;P62805; experiment: EMSA; details: chain shown with the change, 1 pmol/lane H3K9cr-NCP, 20 mM Tris-HCl pH 7.5, 150 mM NaCl, 0.1 mM EDTA, 10% glycerol, 30 min at room temperature, read off a plot
"other: Norm. change (H3K9cr-NCP band intensity) ([2]; DNA:protein ratio 1:5, parent: est. 0.97)","other: Norm. change (H3K9cr-NCP band intensity) ([2]; DNA:protein ratio 1:30, parent: est. 0.26)","other: Norm. change (H3K9cr-NCP band intensity) ([2]; DNA:protein ratio 1:100, parent: est. 0.07)",Molecule,Kd [1]
,,,15-bp dsDNA,47 µM
,,,20-bp dsDNA,57 µM
0.72,0.37,0.5,"AF9-YEATS domain (aa 1-138), P42568 R61E; K63E; K67E (protein) MASSCAVQVKLELGHRAQVRKKPTVEGFTHDWMVFVRGPEHSNIQHFVEKVVFHLHESFPEPERVCEDPPYKVEESGYAGFILPIEVYFKNKEEPRKVRFDYDLFLHLEGHPPVNHLRCEKLTFNNPTEDFRRKLLKA",

# Reference: PMC6212594, “Structural insights into the π-π-π stacking mechanism and DNA-binding activity of the YEATS domain” (Nature Communications, 2018)
